Earlier results as cited in patent publication US20070010466A1 (priority 2005, published 2007).

System: acute myelogenous leukemia
Details: enrollment halted; cited from earlier work

**Q.** Which “mortality in the valspodar arm” value does the source give for `C/C=C/C[C@@H](C)C(=O)[C@H]1C(=O)N[C@@H](C(C)C)C(=O)N(C)CC(=O)N(C)[C@@H](CC(C)C)C(=O)N[C@@H](C(C)C)C(=O)N(C)[C@@H](CC(C)C)C(=O)N[C@@H](C)C(=O)N[C@H](C)C(=O)N(C)[C@@H](CC(C)C)C(=O)N(C)[C@@H](CC(C)C)C(=O)N(C)[C@@H](C(C)C)C(=O)N1C` [valspodar] here?
**A.** excessive early mortality
